# Tests used:
# Chains of the proteins cited; added tags and fusions are not shown. Residues count along the entry.
# UniProt C6XZB6, 26-772: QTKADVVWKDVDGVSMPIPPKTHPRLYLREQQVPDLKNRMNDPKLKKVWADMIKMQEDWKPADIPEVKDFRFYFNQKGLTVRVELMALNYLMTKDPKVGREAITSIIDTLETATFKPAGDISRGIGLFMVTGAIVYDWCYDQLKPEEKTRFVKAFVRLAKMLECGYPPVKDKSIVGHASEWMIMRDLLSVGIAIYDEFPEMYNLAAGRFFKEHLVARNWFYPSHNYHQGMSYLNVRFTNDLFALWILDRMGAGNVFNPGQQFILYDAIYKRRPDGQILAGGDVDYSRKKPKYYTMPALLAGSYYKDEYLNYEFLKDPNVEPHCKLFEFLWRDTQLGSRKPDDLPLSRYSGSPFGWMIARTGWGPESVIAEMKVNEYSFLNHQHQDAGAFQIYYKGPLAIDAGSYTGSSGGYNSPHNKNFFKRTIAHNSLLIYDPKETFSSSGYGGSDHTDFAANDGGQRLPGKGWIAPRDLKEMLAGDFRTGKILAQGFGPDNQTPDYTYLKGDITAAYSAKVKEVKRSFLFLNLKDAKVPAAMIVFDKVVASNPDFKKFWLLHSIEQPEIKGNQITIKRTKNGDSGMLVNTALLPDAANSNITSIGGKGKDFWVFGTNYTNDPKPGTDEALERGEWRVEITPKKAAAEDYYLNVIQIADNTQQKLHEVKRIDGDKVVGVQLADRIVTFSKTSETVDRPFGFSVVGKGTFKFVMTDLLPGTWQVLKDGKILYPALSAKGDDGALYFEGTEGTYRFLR
# UniProt Q59289, 25-659: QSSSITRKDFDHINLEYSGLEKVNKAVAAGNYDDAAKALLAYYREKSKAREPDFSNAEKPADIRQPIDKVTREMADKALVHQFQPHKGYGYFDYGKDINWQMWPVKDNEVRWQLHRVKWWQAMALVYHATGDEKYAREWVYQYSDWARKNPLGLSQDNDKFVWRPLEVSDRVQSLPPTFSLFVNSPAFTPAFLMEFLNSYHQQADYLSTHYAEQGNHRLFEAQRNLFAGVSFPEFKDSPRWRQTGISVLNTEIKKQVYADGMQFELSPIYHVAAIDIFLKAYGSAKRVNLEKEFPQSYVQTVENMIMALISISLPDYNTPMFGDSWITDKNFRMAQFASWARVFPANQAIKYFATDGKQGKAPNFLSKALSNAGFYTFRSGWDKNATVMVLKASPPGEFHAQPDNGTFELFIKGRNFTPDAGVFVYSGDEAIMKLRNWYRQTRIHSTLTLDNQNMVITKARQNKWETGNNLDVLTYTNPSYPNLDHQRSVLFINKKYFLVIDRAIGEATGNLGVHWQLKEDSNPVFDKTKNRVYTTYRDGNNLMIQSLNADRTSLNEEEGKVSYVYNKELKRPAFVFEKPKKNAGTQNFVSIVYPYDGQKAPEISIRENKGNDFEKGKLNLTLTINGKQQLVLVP
# heparin lyase II = heparin lyase II (Pedobacter heparinus, UniProt C6XZB6); experiment: GAG degrading enzyme challenge: heparin lyase II; assay type: in vitro ADME
# Description: The synthetic polysaccharide has no possibility of any potential post-polymerization modifications made by Comamonas in vivo that could block the action of the GAG digesting enzymes. Because of this finding, it is believed that while CtTS is able to utilize heparosan as an acceptor molecule due to a hypothetical shared structural feature, this GAG is not the native substrate.
# heparin lyase III = target: T1, heparin lyase III (Pedobacter heparinus, UniProt Q59289); experiment: GAG degrading enzyme challenge: heparin lyase III; assay type: in vitro ADME; details: 0.2 mg/ml enzyme, 50 mM Tris, pH 7.2, 30° C., gel analysis
# T1 construct: gift of Jian Liu, Univ. of North Carolina
Substance,sensitivity to degradation by heparin lyase II (heparin lyase II),sensitivity to degradation by heparin lyase III (heparin lyase III),sensitivity to degradation by heparin lyase III (heparin lyase III; listed as In vitro synthesized polysaccharide)
"[-4-D-GlcUA-α1,4-D-GlcNAc-α1-]n [testosteronan]",did not digest,–,–
"[-4-D-GlcUA-α1,4-D-GlcNAc-α1-]n [synthetic polysaccharide]",insensitive to degradation,insensitive to degradation,insensitive to digestion

# Reference: US10273517B2, “Methods of producing testosteronan polymers using testosteronan synthase” (The Board of Regents of the University of Oklahoma, priority 2011, dated 2019)
